From ChEMBL document CHEMBL2385039 (Bioorg Med Chem, 2013)

Molecular target: Sodium- and chloride-dependent GABA transporter 1 (Mus musculus, UniProt P31648)
Assay type: cell-based, HEK293

Which IC50 does the source give for `O=C(O)C1CCCNC1` (stereo unspecified) [NIPECOTIC ACID] here?
The IC50 was 8.51 µM.
